The results in this text go back to patent publication US9694016B2 (Novartis AG, priority 2013, dated 2017).

Amino acid sequences for entries named in this document (tags omitted).
UniProt P04049, whole entry Y340E/Y341E: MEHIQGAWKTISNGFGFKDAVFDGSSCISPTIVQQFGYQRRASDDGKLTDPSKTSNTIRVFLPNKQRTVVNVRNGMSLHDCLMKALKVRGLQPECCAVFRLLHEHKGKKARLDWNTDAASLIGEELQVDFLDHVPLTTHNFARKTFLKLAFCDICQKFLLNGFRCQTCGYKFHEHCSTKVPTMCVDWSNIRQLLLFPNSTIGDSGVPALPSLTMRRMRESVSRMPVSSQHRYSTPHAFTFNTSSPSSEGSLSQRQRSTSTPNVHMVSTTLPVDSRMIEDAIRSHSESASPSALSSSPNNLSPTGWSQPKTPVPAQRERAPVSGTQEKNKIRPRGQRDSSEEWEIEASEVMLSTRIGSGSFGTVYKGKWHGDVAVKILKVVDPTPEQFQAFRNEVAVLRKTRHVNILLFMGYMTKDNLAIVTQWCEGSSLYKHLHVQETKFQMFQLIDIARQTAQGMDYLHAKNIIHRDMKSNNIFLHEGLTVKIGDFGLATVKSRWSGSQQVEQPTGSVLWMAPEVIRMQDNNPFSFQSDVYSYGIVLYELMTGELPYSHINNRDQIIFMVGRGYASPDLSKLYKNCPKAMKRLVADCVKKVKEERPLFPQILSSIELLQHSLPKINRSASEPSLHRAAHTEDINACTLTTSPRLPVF

In the first experiment the target is C-Raf FL (full-length C-Raf protein, Y340E and Y341E activating mutations) (Homo sapiens (Human), UniProt P04049, Y340E/Y341E). Format: biochemical. Conditions: AlphaScreen, 60 min pre-incubation, 1 hour reaction; read-out: c-Raf FL IC-50. (In general: Bead proximity is the source of the signal in Alpha formats.)
In the case of `Cc1ncc(NC(=O)c2cccc(C(F)(F)F)c2)cc1-c1cc(N2CCOCC2)nc(N2CC(O)C2)n1` [Example 768, N-(5-(2-(3-hydroxyazetidin-1-yl)-6-morpholinopyrimidin-4-yl)-6-methylpyridin-3-yl)-3-(trifluoromethyl)benzamide], the IC50 was 2.8 nM. Regarding `CCOc1nnc(-c2cc(NC(=O)c3ccnc(C(C)(C)C#N)c3)cnc2C)cc1N1CCOCC1` [Example 613, 2-(2-cyanopropan-2-yl)-N-(5-(6-ethoxy-5-morpholinopyridazin-3-yl)-6-methylpyridin-3-yl)isonicotinamide], the IC50 is 3.6 nM. For the compound `Cc1ccc(NC(=O)c2ccnc(C(C)(C)F)c2)cc1-c1cc(C2CCOCC2)c(=O)n(C)n1` [Example 676, 2-(2-fluoropropan-2-yl)-N-(4-methyl-3-(1-methyl-6-oxo-5-(tetrahydro-2H-pyran-4-yl)-1,6-dihydropyridazin-3-yl)phenyl)isonicotinamide], the IC50 came out at 0.7 nM. Take `CCOc1ncc(-c2cc(NC(=O)c3cc(CN(C)C)cc(C(F)(F)F)c3)cnc2C)nc1N1CCOCC1` [Example 545, 3-((dimethylamino)methyl)-N-(5-(5-ethoxy-6-morpholinopyrazin-2-yl)-6-methylpyridin-3-yl)-5-(trifluoromethyl)benzamide]: the IC50 was found to be 3.9 nM. As to `CCNc1nc(-c2cc(NC(=O)c3ccccc3)ccc2C)cc(N2CCOCC2)n1` [Example 695, N-(3-(2-(ethylamino)-6-morpholinopyrimidin-4-yl)-4-methylphenyl)benzamide], the IC50 is 1.6 nM. Consider `Cc1ncc(NC(=O)c2cccc(C(F)F)c2)cc1-c1cc(N2CCOCC2)nc(N2CC(O)C2)n1` [Example 770, 3-(difluoromethyl)-N-(5-(2-(3-hydroxyazetidin-1-yl)-6-morpholinopyrimidin-4-yl)-6-methylpyridin-3-yl)benzamide], for which the IC50 stood at 1.3 nM.

For the compound `Cc1ncc(NC(=O)c2ccnc(C(C)(C)C)c2)cc1-c1cc(N2CCOCC2)n(C)c(=O)c1` [Example 507, 2-(tert-butyl)-N-(1′,2-dimethyl-6′-morpholino-2′-oxo-1′,2′-dihydro-[3,4′-bipyridin]-5-yl)isonicotinamide], the IC50 was 4.2 nM. `Cc1ncc(NC(=O)c2ccnc(C3(C#N)CC3)c2)cc1-c1cc(N2CCOCC2)n2nccc2n1` [Example 802, 2-(1-cyanocyclopropyl)-N-(6-methyl-5-(7-morpholinopyrazolo[1,5-a]pyrimidin-5-yl)pyridin-3-yl)isonicotinamide]: the IC50 worked out at 1 nM. For `CCC(F)(F)c1cc(C(=O)Nc2cnc(C)c(-c3cc(N4CCOCC4)c(=O)n(C)n3)c2)ccn1` [Example 679, 2-(1,1-difluoropropyl)-N-(6-methyl-5-(1-methyl-5-morpholino-6-oxo-1,6-dihydropyridazin-3-yl)pyridin-3-yl)isonicotinamide], the IC50 came to 2.7 nM.

With `CCNc1nc(-c2cc(NC(=O)c3ccnc(C(C)(C)C#N)c3)ccc2C)cc(N2CCOC[C@H]2C)n1` [Example 711, (R)-2-(2-cyanopropan-2-yl)-N-(3-(2-(ethylamino)-6-(3-methylmorpholino)pyrimidin-4-yl)-4-methylphenyl)isonicotinamide], the IC50 worked out at 2.6 nM. On the same count and under the same terms, for `CCNc1nc(-c2cc(NC(=O)c3ccnc(C(F)F)c3)cnc2C)cc(N2CCOCC2)n1` [Example 721, 2-(difluoromethyl)-N-(5-(2-(ethylamino)-6-morpholinopyrimidin-4-yl)-6-methylpyridin-3-yl)isonicotinamide] the value was 0.9 nM. For the compound `Cc1ccc(NC(=O)c2ccnc(C(C)(F)F)c2)cc1-c1cc(N2CCOC[C@H]2C)n(C)c(=O)c1` [Example 523, (R)-2-(1,1-difluoroethyl)-N-(4-methyl-3-(1-methyl-6-(3-methylmorpholino)-2-oxo-1,2-dihydropyridin-4-yl)phenyl)isonicotinamide], the IC50 amounted to 0.8 nM.

Staying with this experiment, now noted: AlphaScreen, 60 min pre-incubation, reaction 1 hour at room temperature; read-out: c-Raf FL IC-50.
For the compound `CCOc1cc(-c2cc(NC(=O)c3ccnc(C(C)(C)F)c3)cnc2C)cc(N2CCOCC2)n1` [Example 1142, N-(2′-ethoxy-2-methyl-6′-morpholino-[3,4′-bipyridin]-5-yl)-2-(2-fluoropropan-2-yl)isonicotinamide], the IC50 stood at 1.1 nM. The same measure, in the same setting: for `CCC(F)(F)c1cc(C(=O)Nc2cnc(C)c(-c3cnc(OC(F)F)c(N4CCOCC4)c3)c2)ccn1` [Example 983, N-(6′-(difluoromethoxy)-2-methyl-5-morpholino-[3,3′-bipyridin]-5-yl)-2-(1,1-difluoropropyl)isonicotinamide] the value was 1.43 nM; for `Cc1ccc(NC(=O)c2cc(C(C)(C)C#N)ccn2)cc1-c1cc(N2CCOCC2)c(=O)n(C)n1` [Example 910, 4-(2-cyanopropan-2-yl)-N-(4-methyl-3-(1-methyl-5-morpholino-6-oxo-1,6-dihydropyridazin-3-yl)phenyl)picolinamide], 1.02 nM; for `Cc1ccc(NC(=O)c2ccnc(C(F)F)c2)cc1-c1cc(NCCO)nc(N2CCOCC2)c1` [Example 1053, 2-(difluoromethyl)-N-(3-(2-((2-hydroxyethyl)amino)-6-morpholinopyridin-4-yl)-4-methylphenyl)isonicotinamide], 0.2 nM. `CCOc1ncc(-c2cc(NC(=O)c3cccc(S(C)(=N)=O)c3)ccc2C)cc1N1CCOCC1` (stereo not shown) [Example 975, N-(3-(6-ethoxy-5-morpholinopyridin-3-yl)-4-methylphenyl)-3-(S-methylsulfonimidoyl)benzamide]: the IC50 was determined as 0.78 nM. Take `CCn1cc(C(=O)Nc2ccc(C)c(-c3cc(N4CCOCC4)nc(N4CC(O)C4)c3)c2)cc(C(F)(F)F)c1=O` [Example 1061, 1-ethyl-N-(3-(2-(3-hydroxyazetidin-1-yl)-6-morpholinopyridin-4-yl)-4-methylphenyl)-6-oxo-5-(trifluoromethyl)-1,6-dihydropyridine-3-carboxamide]: the IC50 was 0.65 nM.

For the compound `Cc1ncc(NC(=O)c2cnnc(C(F)(F)F)c2)cc1-c1cc(N2CCOCC2)nc(N2CC(C)(O)C2)c1` [Example 1107, N-(2′-(3-hydroxy-3-methylazetidin-1-yl)-2-methyl-6′-morpholino-[3,4′-bipyridin]-5-yl)-6-(trifluoromethyl)pyridazine-4-carboxamide], the IC50 is 1.75 nM. On to `Cc1ccc(NC(=O)c2cccc(C(F)(F)F)c2)cc1-c1cc(N2CCOCC2)nc(N2C[C@H](O)CC2=O)c1` [Example 1064, (R)—N-(3-(2-(4-hydroxy-2-oxopyrrolidin-1-yl)-6-morpholinopyridin-4-yl)-4-methylphenyl)-3-(trifluoromethyl)benzamide], for which the IC50 amounted to 0.18 nM. On the same count and under the same terms, for `Cc1ccc(NC(=O)c2ccnc(C(F)(F)F)c2)cc1-c1cc(OCCO)nc(N2CCOCC2)c1` [Example 1156, N-(3-(2-(2-hydroxyethoxy)-6-morpholinopyridin-4-yl)-4-methylphenyl)-2-(trifluoromethyl)isonicotinamide] the value was 0.2 nM.

The experiment is the same for the next values; noted with them: Table 2; AlphaScreen, 1 hour reaction; read-out: c-Raf FL IC-50.
As to `COc1ncc(-c2cc(NC(=O)c3ccnc(C(C)(C)F)c3)cnc2C)cc1N1CCOCC1` [Example 281, N-(6′-methoxy-2-methyl-5′-morpholino-[3,3′-bipyridin]-5-yl)-2-(2-fluoropropan-2-yl)isonicotinamide], the IC50 amounted to 1.6 nM. Same read-out and setting: under `Cc1ccc(NC(=O)c2cccc(C(F)(F)F)c2)cc1-c1c[nH]c(=O)c(N2CCOCC2)c1` [Example 146, N-(4-methyl-3-(5-morpholino-6-oxo-1,6-dihydropyridin-3-yl)phenyl)-3-(trifluoromethyl)benzamide] stands 0.2 nM; under `Cn1cc(-c2cc(NC(=O)c3cccc(C(F)F)c3)ccc2Cl)cc(N2CCOCC2)c1=O` [Example 412, N-(4-chloro-3-(1-methyl-5-morpholino-6-oxo-1,6-dihydropyridin-3-yl)phenyl)-3-(difluoromethyl)benzamide], 0.2 nM. With `Cc1nn(C)cc1C(=O)Nc1cnc(C)c(-c2cc(N3CCOCC3)c(=O)n(C)c2)c1` [Example 374, N-(1′,2-dimethyl-5′-morpholino-6′-oxo-1′,6′-dihydro-[3,3′-bipyridin]-5-yl)-1,3-dimethyl-1H-pyrazole-4-carboxamide], the IC50 was determined as 600 nM. For the compound `COc1ncc(-c2cc(NC(=O)c3ccnc(C(C)(C)C#N)c3)cnc2C)cc1N1CCOCC1` [Example 129, 2-(2-cyanopropan-2-yl)-N-(6′-methoxy-2-methyl-5′-morpholino-[3,3′-bipyridin]-5-yl)isonicotinamide], the IC50 stood at 3.6 nM. Same read-out and setting: for `Cc1ccc(NC(=O)c2cccc(C(F)(F)F)c2)cc1-c1cn(CC(F)F)c(=O)c(N2CCOCC2)n1` [Example 170, N-(3-(4-(2,2-difluoroethyl)-6-morpholino-5-oxo-4,5-dihydropyrazin-2-yl)-4-methylphenyl)-3-(trifluoromethyl)benzamide] the value was 0.3 nM; for `Cc1ncc(NC(=O)c2ccnc(C(C)(C)C#N)c2)cc1-c1cnc(OC2CCOCC2)c(N2CCOCC2)c1` [Example 272, 2-(2-cyanopropan-2-yl)-N-(2-methyl-5′-morpholino-6′-((tetrahydro-2H-pyran-4-yl)oxy)-[3,3′-bipyridin]-5-yl)isonicotinamide], 2.7 nM. With `Cc1ccc(NC(=O)c2cccc(C(F)(F)F)c2)cc1-c1cc(N2CCOCC2)nc(N2CCOCC2)c1` [Example 65, N-(3-(2,6-dimorpholinopyridin-4-yl)-4-methylphenyl)-3-(trifluoromethyl)benzamide], the IC50 turned out to be 0.2 nM. In the case of `Cc1ncc(NC(=O)c2cccc(C(F)(F)F)c2)cc1-c1cnc(OC2CCOCC2)c(N2CCOCC2=O)c1` [Example 309, N-(2-methyl-5′-(3-oxomorpholino)-6′-((tetrahydro-2H-pyran-4-yl)oxy)-[3,3′-bipyridin]-5-yl)-3-(trifluoromethyl)benzamide], the IC50 stood at 4.6 nM.

Staying with this experiment, now noted: read-out: c-Raf FL IC-50.
Regarding `Cc1ccc(NC(=O)c2ccnc(N(C)C)c2)cc1-c1cc(N2CCOCC2)c(=O)n(C)c1` [Example 452, 2-(dimethylamino)-N-(4-methyl-3-(1-methyl-5-morpholino-6-oxo-1,6-dihydropyridin-3-yl)phenyl)isonicotinamide], the IC50 came out at 0.5 nM.
